Experimental data reported in patent US20170247475A1 (Boehringer Ingelheim, published 2017).

Amino acid sequences for entries named in this document (tags omitted). Chains listed by the source or under a name are the forms on record and can include a tag or linker.
UniProt P15692, other isoform, or with tags, fused parts or gaps limits assumed: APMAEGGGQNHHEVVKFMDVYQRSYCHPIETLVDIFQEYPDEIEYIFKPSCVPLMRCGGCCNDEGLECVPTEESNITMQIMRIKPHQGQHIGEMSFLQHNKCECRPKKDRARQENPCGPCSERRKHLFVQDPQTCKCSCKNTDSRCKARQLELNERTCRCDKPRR

Assays:
[1] = molecular target: T1, recombinant human VEGF165 (human, UniProt P15692-4 27-191); test: hVEGF165/hVEGFR2-Fc competition ELISA
T1 construct: also called hVEGF165; rhVEGF165

[2] = molecular target: T1, recombinant human VEGF165; test: hVEGF165/hVEGFR1-Fc competition ELISA
[3] = molecular target: T1, recombinant human VEGF165; test: hVEGF165/hVEGFR1-Fc competition AlphaScreen
Procedure: (§1) Finally, streptavidin donor beads (20 μg/ml) are added and after 1 hour of incubation in the dark, fluorescence is measured on the Envision microplate reader.

[4] = molecular target: T1, recombinant human VEGF165; test: hVEGF165/hVEGFR2-Fc competition AlphaScreen
Procedure: as §1

[5] = molecular target: T1, recombinant human VEGF165; test: competition AlphaScreen, blocking of hVEGF165 binding to hVEGFR2-Fc
[6] = molecular target: T1, recombinant human VEGF165; test: as above; remark: listed apart in the source
[7] = molecular target: T1, recombinant human VEGF165; test: as above; remark: listed apart in the source
[8] = molecular target: T1, recombinant human VEGF165; test: as above; remark: listed apart in the source
[9] = molecular target: T1, recombinant human VEGF165; test: competition AlphaScreen, blocking of hVEGF165 binding to hVEGFR1-Fc
[10] = molecular target: T1, recombinant human VEGF165; test: as above; remark: listed apart in the source
[11] = molecular target: T1, recombinant human VEGF165; test: AlphaScreen competition, 0.05 nM hVEGF165 and 0.05 nM hVEGFR2-Fc; blocked: hVEGFR2-Fc
[12] = molecular target: T1, recombinant human VEGF165; test: as above; remark: listed apart in the source
[13] = molecular target: T1, recombinant human VEGF165; test: as above; remark: listed apart in the source
[14] = molecular target: T1, recombinant human VEGF165; test: as above; remark: listed apart in the source
[15] = molecular target: T1, recombinant human VEGF165; test: as above; remark: listed apart in the source
[16] = molecular target: T1, recombinant human VEGF165; test: as above; remark: listed apart in the source
[17] = molecular target: T1, recombinant human VEGF165; test: as above; remark: listed apart in the source
[18] = molecular target: T1, recombinant human VEGF165; test: as above; remark: listed apart in the source
[19] = molecular target: T1, recombinant human VEGF165; test: AlphaScreen competition, 0.05 nM hVEGF165 and 0.05 nM hVEGFR1-Fc; blocked: hVEGFR1-Fc
[20] = molecular target: T1, recombinant human VEGF165; test: as above; remark: listed apart in the source
[21] = molecular target: T1, recombinant human VEGF165; test: as above; remark: listed apart in the source
[22] = molecular target: T1, recombinant human VEGF165; test: as above; remark: listed apart in the source
[23] = molecular target: T1, recombinant human VEGF165; test: as above; remark: listed apart in the source
[24] = molecular target: T1, recombinant human VEGF165; test: as above; remark: listed apart in the source
[25] = molecular target: T1, recombinant human VEGF165; test: as above; remark: listed apart in the source
[26] = molecular target: T1, recombinant human VEGF165; test: as above; remark: listed apart in the source
[27] = molecular target: T1, recombinant human VEGF165; test: AlphaScreen competition, 0.05 nM hVEGF165 and 0.05 nM hVEGFR2-Fc; blocked: hVEGFR2-Fc; remark: listed apart in the source
[28] = molecular target: T1, recombinant human VEGF165; test: as above; remark: listed apart in the source
[29] = molecular target: T1, recombinant human VEGF165; test: as above; remark: listed apart in the source
[30] = molecular target: T1, recombinant human VEGF165; test: AlphaScreen competition, 0.05 nM hVEGF165 and 0.05 nM hVEGFR1-Fc; blocked: hVEGFR1-Fc; remark: listed apart in the source

B1: Ranibizumab (Fab, V domains shown)
VH: EVQLVESGGGLVQPGGSLRLSCAASGYDFTHYGMNWVRQAPGKGLEWVGWINTYTGEPTYAADFKRRFTFSLDTSKSTAYLQMNSLRAEDTAVYYCAKYPYYYGTSHWYFDVWGQGTLVTVSS
VL: DIQLTQSPSSLSASVGDRVTITCSASQDISNYLNWYQQKPGKAPKVLIYFTSSLHSGVPSRFSGSGSGTDFTLTISSLQPEDFATYYCQQYSTVPWTFGQGTKVEIKR
IC50 [1]: 1.6 nM
IC50 [2]: 1.2 nM
% inhibition [3]: 79%
IC50 [3]: 3.3 nM
IC50 [4]: 0.6 nM
IC50 (read off the curve) [5]: ~1 nM
IC50 (read off the curve) [6]: ~0.8 nM
IC50 (read off the curve) [7]: ~0.8 nM
IC50 (read off the curve) [8]: ~0.8 nM
IC50 (read off the curve) [9]: ~2 nM
IC50 (read off the curve) [10]: ~2 nM
IC50 (read off the curve) [11]: ~1 nM
IC50 (read off the curve) [12]: ~1 nM
IC50 (read off the curve) [13]: ~1 nM
IC50 (read off the curve) [14]: ~1 nM
IC50 (read off the curve) [15]: ~1 nM
IC50 (read off the curve) [16]: ~1 nM
IC50 (read off the curve) [17]: ~1 nM
IC50 (read off the curve) [18]: ~1 nM
IC50 (read off the curve) [19]: ~4 nM
IC50 (read off the curve) [20]: ~4 nM
IC50 (read off the curve) [21]: ~4 nM
IC50 (read off the curve) [22]: ~4 nM
IC50 (read off the curve) [23]: ~4 nM
IC50 (read off the curve) [24]: ~4 nM
IC50 (read off the curve) [25]: ~4 nM
IC50 (read off the curve) [26]: ~4 nM
IC50 (read off the curve) [27]: ~0.5 nM
IC50 (read off the curve) [28]: ~0.5 nM
IC50 (read off the curve) [29]: ~0.5 nM
IC50 (read off the curve) [30]: ~3 nM
